{"source": "ChEMBL document CHEMBL1134019", "about": "“Structure determination and comparison of BM567, a sulfonylurea, with terbogrel, two compounds with dual action, thromboxane receptor antagonism and thromboxane synthase inhibition” (Bioorg Med Chem Lett, 2001)", "biological_target": "T1, Thromboxane-A synthase (Homo sapiens, UniProt P24557)", "T1 sequence (P24557 whole entry)": "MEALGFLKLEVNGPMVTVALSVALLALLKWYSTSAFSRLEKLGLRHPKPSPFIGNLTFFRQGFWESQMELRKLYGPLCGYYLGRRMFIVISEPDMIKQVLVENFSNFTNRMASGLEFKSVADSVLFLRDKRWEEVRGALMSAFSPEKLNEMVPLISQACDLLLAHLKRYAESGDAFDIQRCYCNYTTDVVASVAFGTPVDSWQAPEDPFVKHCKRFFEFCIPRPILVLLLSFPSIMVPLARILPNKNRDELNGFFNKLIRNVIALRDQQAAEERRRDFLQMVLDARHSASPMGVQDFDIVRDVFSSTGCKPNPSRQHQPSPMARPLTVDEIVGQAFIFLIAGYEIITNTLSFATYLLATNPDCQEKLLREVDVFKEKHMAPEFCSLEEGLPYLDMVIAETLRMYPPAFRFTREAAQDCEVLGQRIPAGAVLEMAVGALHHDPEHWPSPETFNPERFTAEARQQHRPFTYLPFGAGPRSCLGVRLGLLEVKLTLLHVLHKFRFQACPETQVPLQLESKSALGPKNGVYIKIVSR", "experiment": "In vitro inhibitory concentration of compound against thromboxane A2 synthase", "note": "pIC50: −log10 of the molar value."}
{"smiles": "CC(C)(C)/N=C(\\NC#N)Nc1cccc(/C(=C/CCCC(=O)O)c2cccnc2)c1", "values": [{"measurement": "pIC50", "result": 8.40}]}
